Source: article PMC5788402, “Impact of Target Warhead and Linkage Vector on Inducing Protein Degradation: Comparison of Bromodomain and Extra-Terminal (BET) Degraders Derived from Triazolodiazepine (JQ1) and Tetrahydroquinoline (I-BET726) BET Inhibitor Scaffolds” (Journal of Medicinal Chemistry, 2017)

By UniProt entry, the sequences of proteins in these tests, tags left out. Residues count along the entry.
UniProt P40337, 54-213 limits assumed: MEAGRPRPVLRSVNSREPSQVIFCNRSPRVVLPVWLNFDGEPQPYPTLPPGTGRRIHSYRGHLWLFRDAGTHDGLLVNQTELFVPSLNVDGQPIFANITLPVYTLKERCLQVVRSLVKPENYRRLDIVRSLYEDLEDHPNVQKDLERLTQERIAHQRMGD

Legend:
[1] = molecular target: VCB / Brd4^BD2 ternary complex (Homo sapiens, UniProt O60885+P40337); experiment: ITC ternary titration, VCB into Brd4^BD2–PROTAC complex; assay type: binding
Brd4^BD2 = Brd4^BD2 (Homo sapiens, UniProt O60885); experiment: ITC binary titration, Brd4^BD2 into PROTAC; assay type: binding; conditions: Brd4^BD2 in syringe, PROTAC in cell
[2] = ternary, VCB in syringe, Brd4^BD2–PROTAC in cell

Cc1ncsc1-c1ccc(CNC(=O)[C@@H]2C[C@@H](O)CN2C(=O)[C@@H](NC(=O)COCCOCCOCCNC(=O)C[C@@H]2N=C(c3ccc(Cl)cc3)c3c(sc(C)c3C)-n3c(C)nnc32)C(C)(C)C)cc1 [compound 6]
ΔpKd ± uncertainty ([1]; ternary vs binary, Brd4^BD2): 0.95 ± 0.29 | stoichiometry N [1, 2]: 0.83 ± 0.04 | ΔG [1, 2]: –11.1 ± 0.3 kcal·mol^–1 | ΔH [1, 2]: –8.47 ± 2.83 kcal·mol^–1 | –TΔS [1, 2]: –2.59 ± 0.69 kcal·mol^–1 | stoichiometry N (Brd4^BD2): 0.91 ± 0.06 | ΔG (Brd4^BD2): –10.3 ± 0.04 kcal·mol^–1 | ΔH (Brd4^BD2): –11.1 ± 0.8 kcal·mol^–1 | –TΔS (Brd4^BD2): 0.77 ± 0.80 kcal·mol^–1
